# Literature values, collected in patent US20100179162A1, “Crystal forms of 4-[6-methoxy-7(3-piperidin-1-yl-propoxy) quinazoline-4yl) piperazine-1-carboxylic acid (4-isopropoxyphenyl)-amide” (Millennium Pharmaceuticals , Inc., priority 2005, published 2010).
# Tested on: human FLT-3/ITD-positive AML cancer cells
# Details: preclinical studies
structure (smiles),measurement,value
"COc1cc2c(N3CCN(C(=O)Nc4ccc(OC(C)C)cc4)CC3)ncnc2cc1OCCCN1CCCCC1 [the Compound, 4-[6-methoxy-7-(3-piperidin-1-yl-propoxy)quinazolin-4-yl]piperazine-1-carboxylic acid (4-isopropoxyphenyl)-amide]",killing of human FLT-3/ITD-positive AML cancer cells,selectively killed
